According to patent US11091472B2, “PI-kinase inhibitors with anti-infective activity” (The Board of Trustees of the Leland Stanford Junior …, priority 2016, dated 2021):

What was measured:
[1] = system: HRV; test: Rhinovirus antiviral assay; assay type: cell-based; details: Human rhinovirus sp., read-out: HRV EC50
[2] = system: HCV2a; test: microbe, parasite or virus in culture; assay type: cell-based, HCV; details: Hepatitis C virus, Huh7.5, read-out: HCV2a EC50
Excerpt: Tables 4-6 show the results of testing selected compounds for anti-viral (EC50) activity in various assays, such as a HCV genotype 2a in Huh7.5 cells by luciferase reporter assay, for cell toxicity (CC50) and metabolic halflife (t½), according to the methods described above.

For `COc1ccc(-c2sc(NC(=O)CC3CCOCC3)nc2C)cc1S(=O)(=O)Nc1ccccc1C` [Compound S-228], the EC50 [1] was < 1 nM and the EC50 [2] was 100 to 1000 nM.

With `COc1ccc(-c2sc(NC(=O)[C@@H](C)C3CCCCC3)nc2C)cc1S(=O)(=O)Nc1ccc(O)cc1` [Compound S-138] the EC50 [1] was < 1 nM and the EC50 [2] was 100 to 1000 nM.

With `COc1ccc(-c2sc(NCC3CCCCC3)nc2C)cc1S(=O)(=O)Nc1ccccc1F` [Compound S-29] the EC50 [1] was < 1 nM.
